Protein sequences, listed by entry. Tags and fused reporters are not part of them.
UniProt Q99685, whole entry: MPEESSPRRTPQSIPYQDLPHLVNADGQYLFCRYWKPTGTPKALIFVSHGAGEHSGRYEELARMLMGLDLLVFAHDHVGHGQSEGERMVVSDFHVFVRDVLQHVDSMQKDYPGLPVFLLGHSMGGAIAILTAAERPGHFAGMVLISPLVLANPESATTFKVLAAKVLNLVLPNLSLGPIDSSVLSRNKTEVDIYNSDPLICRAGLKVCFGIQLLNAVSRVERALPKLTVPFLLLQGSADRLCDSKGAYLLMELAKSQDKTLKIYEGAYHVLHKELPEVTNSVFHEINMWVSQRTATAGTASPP
UniProt O35678, whole entry: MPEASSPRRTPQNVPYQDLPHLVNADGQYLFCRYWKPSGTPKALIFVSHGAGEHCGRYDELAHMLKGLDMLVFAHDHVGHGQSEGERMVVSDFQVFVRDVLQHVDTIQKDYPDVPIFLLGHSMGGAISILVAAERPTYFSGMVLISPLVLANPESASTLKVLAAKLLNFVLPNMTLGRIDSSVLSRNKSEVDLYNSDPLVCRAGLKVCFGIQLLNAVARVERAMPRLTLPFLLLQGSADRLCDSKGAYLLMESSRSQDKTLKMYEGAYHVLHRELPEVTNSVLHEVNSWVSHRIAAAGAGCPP

According to article PMC9395968, “Pristimerin, a triterpene that inhibits monoacylglycerol lipase activity, prevents the development of paclitaxel-induced allodynia in mice” (Frontiers in Pharmacology, 2022):

Tests used:
[1] = biological target: T1, human recombinant monoacylglycerol lipase (MAGL) (Homo sapiens, UniProt Q99685); test: colorimetric MAGL inhibitor screening kit (4-nitrophenyl acetate hydrolysis, […] nm); format: biochemical
T1 construct: gene MGLL

[2] = biological target: T2, mouse monoacylglycerol lipase (MAGL) (Mus musculus, UniProt O35678)
T2 construct: gene Mgll

Compound: O=C(Oc1ccc([N+](=O)[O-])cc1)N1CCN(Cc2cccc(Oc3ccccc3)c2)CC1 [JZL195]
- IC50 [1]: 114 nM
- IC50 [2]: 869 nM
